In this assay the test system is UACC-62 cells. Put plainly: High-throughput Cell Death Assay I, UACC-62 melanoma cells. Particulars: read-out: IC50 (μM) at 72 hours. As to the method:
High-throughput Cell Death Assay I on Test Compounds: U-937 and HL-60 cells from cell culture are harvested by centrifugation at 250×g for 5 min. Cells are then resuspended in RPMI 1640+10% FBS, counted using a hemocytometer and diluted so that 20,000 cells are seeded into each well of a Corning 96-well flat bottom microtiter plate (Fisher, Chicago Ill.). Media is then added to bring the total volume of each well to 100 μL. Test compounds are transferred into the wells using a 96-pin transfer apparatus (V & P Scientific, San Diego Calif.) that transfers 0.2 μL of compound. The compounds are made up as 50 mM stock solutions in 100% EtOH, so one transfer gives a final concentration of 100 microM. […] The cells are incubated with the compounds for 24 hours, and then cell death is quantitated. This quantitation is performed by addition of 20 microL of the MTS/PMS CellTiter 96 Cell Proliferation Assay reagent (Promega, Madison Wis.) to each well; this reagent is 3-(4,5-dimethylthiazol-2-yl)-5-(3-carboxymethoxyphenyl)-2-(4-sulfophenyl)-2H-tetrazolium, inner salt (MTS), and an electron coupling reagent, phenazine methosulfate (PMS). […]
The plates are incubated at 37° C. for approximately one hour until the colored product formed and the absorbance was then measured at 490 nm in a Spectra Max Plus 384 plate reader (Molecular Devices, Sunnyvale Calif.). […]

SMILES strings stand for the structures.

Usually IC50 stands for the concentration needed to halve the response being measured.

For the molecule `C#CCOP(=O)(Cl)C(c1ccccc1)(c1ccccc1)c1ccccc1` (centres unmarked), the IC50 was determined as 7.19 µM.

For the molecule `CC#CCOP(=O)(Cl)C(c1ccccc1)(c1ccccc1)c1ccccc1` (centres unmarked), the IC50 is 17.5 µM.

Source of the values: patent US7709465B2, “Phosphorous containing compounds including triphenylmethylphosphonate esters for the treatment of melanoma and other cancers” (The Board of Trustees of the University of Illinois, priority 2006, dated 2010).
